The term Kd denotes the constant that tells how readily two partners part at equilibrium. A higher Kd goes with weaker binding.

Experimental findings from paper doi:10.1101/2024.03.05.583490 are described below.

This test addresses IR-Rluc (insulin receptor fused to Rluc) (UniProt P06213). The experiment in a line: radioligand binding.

Substance 125I-Insulin (ligand) registered a Kd of 0.14 nM.
